# Experiments:
# [1] = test system: β-lactamase expressing P. aeruginosa cell extracts; details: Tris buffer pH 7.0, cell extract of ampicillin-induced cells
# [2] = test system: extracellular β-lactamases of P. aeruginosa; format: biochemical
# [3] = test system: non-β-lactamase-expressing E. coli cell extracts; details: Tris buffer pH 7.0, cell extract
# [4] = test system: β-lactamase (penicillinase, Sigma Aldrich); assay: Amperometric nitric oxide release on exposure to penicillinase; format: biochemical
# [5] = test system: Staphylococcus aureus biofilms; details: 10 min after treatment
# [6] = test system: P. aeruginosa MA67 biofilms; details: imipenem 0.5 μg/mL 1 h pre-treatment, 15 mins exposure, crystal violet
# [7] = test system: P. aeruginosa NSGFP reporter strain (nirS-GFP); format: cell-based
# Vibrio cholerae biofilms = details: 10 min after treatment
# [8] = test system: Escherichia coli biofilms; details: 10 min after treatment
# [9] = test system: P. aeruginosa PAO1 wild type cells; assay: Planktonic growth inhibition, minimum inhibitory concentration; format: cell-based; details: Pseudomonas aeruginosa, PAO1, 20 h
# [10] = test system: P. aeruginosa PAO1 wild type biofilms; assay: Biofilm dispersal assay, 24-well batch culture, PAO1; format: cell-based
# [11] = test system: P. aeruginosa FRD1 biofilms; details: 100 μM, 10 min, biofilms grown for 24 h
# [12] = test system: Serratia marcescens biofilms; details: 10 min after treatment
# [13] = test system: P. aeruginosa biofilm and planktonic cells
# Text: FIG. 11. […] Error bars indicate standard error; n=2.
# Planktonic growth was quantified at various time points by direct measurement of OD600 of the supernatant. […] For each time point, planktonic bacteria were collected, serially diluted in sterile phosphate-buffered saline (PBS) and spread on LB agar plates. Biofilms were gently rinsed once with PBS and resuspended from the wall and bottom well surfaces (total surface area=4.4 cm^2) using a sterile cotton swab. Bacterial aggregates were further disrupted in a bath sonicator for 10 min. Biofilm bacteria were then serially diluted and spread on LB agar plates. Colony forming units (CFU) were determined after 1 day incubation at 37° C.
# [14] = test system: P. aeruginosa PAO1 biofilms; details: 100 μM, continuous flow, M9 minimal medium
# Text: FIG. 9. […] Data is representative of two independent experiments.
# P. aeruginosa biofilms = details: 10 μM and 100 μM, 15 min, imipenem 0.5 μg/mL 1 h pre-treatment
# [15] = 10 min exposure, compared to untreated controls
structure (smiles),measurement,setting,value
CCN(CC)/[N+]([O-])=N/OCC1=C(C(=O)O)N2C(=O)C(NC(=O)Cc3ccccc3)C2SC1 (stereo not shown) [Compound 15],nitric oxide release,[1],nitric oxide is released
same,nitric oxide release after addition of ampicillin,[2]; 500 μl of 100 μg/ml ampicillin added to imipenem-treated cells supernatant,did not inhibit nitric oxide release
same,nitric oxide release,[2]; supernatant of culture pre-treated with imipenem 0.5 μg/ml 1 h,trigger release of nitric oxide
same,nitric oxide release,[3],smaller yet measurable release of nitric oxide
same,"release of nitric oxide triggered by penicillinase, effect of pH",[4]; between pH 5 and 7,varies slightly
same,"release of nitric oxide triggered by penicillinase, effect of pH",[4]; pH 9,greatly reduced
CCN(CC)/[N+]([O-])=N/OCC1=C(C(=O)O)N2C(=O)C(NC(=O)Cc3ccccc3)C2SC1 (stereo not shown) [Compound 21],biofilm dispersal,[5],induces rapid dispersal
same,"dispersal of pre-established biofilms, dose dependence",[6],dose dependent
same,GFP-response,"[7]; 150 μM alone, cells with or without pre-activation of β-lactamase activity, 2 h",GFP-response greater than the response triggered by SNP
same,cleavage and nitric oxide availability to bacteria (GFP response),[7]; β-lactamase induced by subinhibitory ampicillin (50 μg/ml),enhanced
same,biofilm dispersal,Vibrio cholerae biofilms,induces rapid dispersal
same,biofilm dispersal,[8],induces rapid dispersal
same,MIC,[9],4 mM
same,biofilm biomass reduced (CV staining),[10]; [15],55%
same,planktonic biomass increased (OD600nm of supernatants),[10]; [15],20%
same,"biofilm dispersal, dose dependence","[10]; range 10-100 μM, 10 min",induces dispersal in a dose dependent manner
same,dispersal (CV staining),[11],30%
same,biofilm dispersal,[12],induces rapid dispersal
same,biofilm CFU,"[13]; 100 μM alone, 1 h treatment, untreated 1.9×10^8",1.3×10^8 CFU per well
same,planktonic CFU,"[13]; 100 μM alone, 1 h treatment, untreated 4.8×10^8",11×10^8 CFU per well
same,efficacy of 10 μM ceftazidime against both biofilm and planktonic bacteria in the presence of Compound 21,"[13]; 1 h, compared to ceftazidime alone",increased
same,increase in efficacy of ceftazidime against biofilm bacteria in the presence of Compound 21,"[13]; 2 h treatments, compared to without Compound 21",2.3 fold
same,released cells (OD600 of the effluent),[14],rapid and significant increase in released cells
same,biofilm dispersion after induction of extracellular β-lactamase,P. aeruginosa biofilms,enhanced biofilm-dispersion effects
O=C(Cc1ccccc1)NC1C(=O)N2C(C(=O)O)=C(CO/N=[N+](\[O-])N3CCCC3)CSC12 (stereo not shown) [Compound 23],"dispersal of pre-established biofilms, dose dependence",[6],dose dependent

# From US9156855B2, “Regulation of nitric oxide release and biofilm development” (Newsouth Innovation Pty Limited, priority 2011, dated 2015)
